# According to PubChem BioAssay AID651768 (National Center for Advancing Translational Sciences (NCATS), 2012):
# Sequences of proteins named here, by UniProt entry; tags and fusion partners are left off.
# UniProt Q14191, whole entry: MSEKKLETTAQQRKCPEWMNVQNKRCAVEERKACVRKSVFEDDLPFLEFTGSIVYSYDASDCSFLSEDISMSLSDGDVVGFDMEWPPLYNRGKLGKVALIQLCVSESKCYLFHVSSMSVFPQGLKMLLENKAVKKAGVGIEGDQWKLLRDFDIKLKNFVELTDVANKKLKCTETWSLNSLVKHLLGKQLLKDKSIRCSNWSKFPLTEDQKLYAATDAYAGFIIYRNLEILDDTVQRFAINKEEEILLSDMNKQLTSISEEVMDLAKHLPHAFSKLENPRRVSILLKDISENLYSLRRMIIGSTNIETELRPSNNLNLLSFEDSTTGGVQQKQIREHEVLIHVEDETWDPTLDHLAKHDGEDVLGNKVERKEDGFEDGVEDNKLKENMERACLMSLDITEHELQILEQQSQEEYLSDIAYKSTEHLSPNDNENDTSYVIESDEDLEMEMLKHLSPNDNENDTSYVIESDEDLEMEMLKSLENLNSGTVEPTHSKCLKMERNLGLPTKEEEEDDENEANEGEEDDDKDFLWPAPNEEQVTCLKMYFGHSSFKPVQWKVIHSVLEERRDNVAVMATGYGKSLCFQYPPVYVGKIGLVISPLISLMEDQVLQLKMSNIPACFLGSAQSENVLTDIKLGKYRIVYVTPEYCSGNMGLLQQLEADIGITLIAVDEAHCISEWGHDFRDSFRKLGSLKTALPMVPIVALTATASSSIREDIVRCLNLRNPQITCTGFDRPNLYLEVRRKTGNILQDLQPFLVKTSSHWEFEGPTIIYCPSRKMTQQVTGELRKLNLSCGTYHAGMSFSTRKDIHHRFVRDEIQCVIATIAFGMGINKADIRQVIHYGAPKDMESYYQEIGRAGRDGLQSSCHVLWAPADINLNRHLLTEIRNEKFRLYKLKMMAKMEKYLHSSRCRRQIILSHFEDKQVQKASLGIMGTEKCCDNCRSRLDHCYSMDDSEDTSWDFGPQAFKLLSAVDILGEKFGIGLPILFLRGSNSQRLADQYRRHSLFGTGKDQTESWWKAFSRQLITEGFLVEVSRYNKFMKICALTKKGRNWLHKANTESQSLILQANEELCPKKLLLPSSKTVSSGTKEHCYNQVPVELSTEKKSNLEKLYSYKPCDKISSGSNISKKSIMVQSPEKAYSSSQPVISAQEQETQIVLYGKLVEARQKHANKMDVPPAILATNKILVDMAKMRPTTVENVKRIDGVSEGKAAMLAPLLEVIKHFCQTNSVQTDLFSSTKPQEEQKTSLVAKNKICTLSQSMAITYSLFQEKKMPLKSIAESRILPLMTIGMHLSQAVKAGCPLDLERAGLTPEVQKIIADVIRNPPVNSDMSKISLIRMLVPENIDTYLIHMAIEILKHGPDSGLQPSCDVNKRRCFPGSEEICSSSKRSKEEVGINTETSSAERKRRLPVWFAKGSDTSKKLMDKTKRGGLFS
# The list shows a part of the results, in another mix than the full data. The source made the active and inactive calls. The call rests on the fitted dose curve; in most records, active means well fitted inhibition curve with a large enough effect; inconclusive means small, poorly fitted or top-dose-only effect; inactive means no such curve, though single readings can be large or run the other way.
# Target: Bifunctional 3'-5' exonuclease/ATP-dependent helicase WRN (Homo sapiens) (UniProt Q14191)
# Assay: qHTS for Inhibitors of WRN Helicase; further: nearly all actives have a fitted effect of over 55% in size
# Settings: WRN helicase unwinding, fluorescent forked duplex, kinetic; at 114 µM (top of the series) unless noted
# Description: Inhibition of DNA repair is proposed as a strategy for combating cancer. Synthetic lethality is an approach that exploits preexisting DNA repair deficiencies in certain tumors to develop inhibitors of DNA repair pathways that compensate for the tumor-associated DNA repair deficiency. Because helicases play critical roles in the DNA damage response and in DNA repair, particularly in actively dividing and replicating cells, characterization of synthetic lethal relationships of DNA helicases may be of value in developing improved anticancer treatment strategies; moreover, small molecules that specifically target a given DNA helicase may be useful for understanding its role in cellular nucleic acid metabolism. The goal of this project is to identify small molecule, non-covalent chemical inhibitors of the Werner syndrome (WS) helicase (WRN), which plays an important role in cell proliferation, the replication stress response, and DNA repair. […] The WRN gene product that is defective in the chromosomal instability disorder has DNA helicase and exonuclease activities and interacts with a number of nuclear proteins to maintain genomic stability. We will employ an optimized high-throughput screening assay that utilizes a fluorescence intensity modulation scheme with a fluorophore and quencher positioned near one another within a duplex deoxyoligonucleotide that contains a single forked structure. After a high-throughput screen of the ~350,000-member Molecular Libraries Small Molecule Repository (MLSMR) collection, followed by data analysis and hit selection, a panel of confirmatory, as well as secondary and ternary, assays will be employed to identify high-confidence WRN inhibitors. Structure-activity relationships will be investigated for the top candidate inhibitor series through medchem expansion. These are the results of the primary screening campaign against the MLSMR. NIH Chemical Genomics Center [NCGC] NIH Molecular Libraries Probe Centers Network [MLPCN] MLPCN Grant: MH096530 Assay Submitter (PI): Robert Brosh, National Institute of Aging
# Three muL of reagents (buffer in columns 3 and 4 as negative controls; WRN at 20 nM final concentration in columns 1 and 2 as positive controls; columns 5-48 as test reactions) will be dispensed into a 1536-well Greiner black plate via solenoid-valve based nanoliter dispensers. Compounds (23 nL each in columns 5-48) and control (23 nL each in column 2 as dose-response) will be transferred via a Kalypsys pintool equipped with a 1536-pin array. Plates will be incubated for 15 min at room temperature, and then 1 µL of substrate (100 nM forked duplex oligonucleotide and 2 mM ATP final concentrations) will be added to start reaction, and plate will be transferred into a ViewLux high-throughput CCD imager where reaction progress is measured in kinetic mode using standard red-fluorescence optics (excitation filter 525 nm, emission filter 598 nm).
# On the % scale 0 is the no-effect control and ±100 the full control effect.
row,Structure (SMILES),"activity change, negative = inhibition"
1,CCOC(=O)C(CC)C1=NC(C)(C)Cc2ccccc21.O=[N+]([O-])c1cc([N+](=O)[O-])c(O)c([N+](=O)[O-])c1 (stereo unspecified),inactive: -0.359%
2,N#Cc1ccc(C(=O)NCC2(N3CCCCC3)CCCCC2)cc1,inactive: -5.57%
3,CC(C)(C)OC(=O)N1CCC(N(C(=O)c2ccccc2)c2ccc(Cl)cc2)CC1,inactive: -6.48%
4,CC(C)(C)n1nnnc1C(c1cccc2ccccc12)N1CCC(n2c(=O)[nH]c3ccccc32)CC1 (stereo unspecified),inactive: -2.85%
5,CN(C)C1(CNC(=O)c2cccc(C#N)c2)CCCCC1,inactive: -8.43%
6,Cc1cc(N(CCCl)CCCl)ccc1C=O,inactive: -1.93%
7,CCCN1CCC(Nc2cc(OC)cc(OC)c2)CC1,inactive: -4.99%
8,O=c1[nH]c2ccccc2n1C1CCN(C(c2ccccc2)c2nnnn2C2CCCC2)CC1 (stereo unspecified),inactive: -7.09%
9,c1ccc(CN2CCC(Nc3ccccc3)CC2)cc1,inactive: 5.45%
10,O=c1[nH]c2ccccc2n1C1CCN(C(c2cccs2)c2nnnn2C2CCCCC2)CC1 (stereo unspecified),inactive: -7.59%
11,O=c1[nH]c2ccccc2n1C1CCN(C(c2ccnc3ccccc23)c2nnnn2C2CCCC2)CC1 (stereo unspecified),inactive: -6.53%
12,COc1ccc(C(=O)NCC2(N3CCOCC3)CCCCC2)cc1OC,inactive: 4.05%
13,COc1cc(C(=O)NCC2(N3CCOCC3)CCCCC2)cc(OC)c1C,inactive: -14.5%
14,CCCCn1nnnc1C(c1ccccc1)N1CCC(n2c(=O)[nH]c3ccccc32)CC1 (stereo unspecified),inactive: -0.973%
15,O=C(NCC1(N2CCOCC2)CCCCC1)c1cc(Br)ccc1Cl,inactive: -3.61%
16,O=C(O)c1cccc(Nc2c([N+](=O)[O-])cc([N+](=O)[O-])cc2[N+](=O)[O-])c1,inactive: 1.9%
17,O=c1[nH]c2ccccc2n1C1CCN(C(c2cccs2)c2nnnn2C2CCCC2)CC1 (stereo unspecified),inactive: -6.11%
18,CCc1cc(C(=O)NCC2(N3CCCCC3)CCCCC2)sc1C,inactive: 1.64%
19,O=C(OC1CN2CCC1CC2)C1c2ccccc2C=Cc2ccccc21 (stereo unspecified),inactive: 8.82%
20,CCCCn1nnnc1C(c1cccc(OC)c1OC)N1CCC(n2c(=O)[nH]c3ccccc32)CC1 (stereo unspecified),inactive: -3.33%
21,CCOC(=O)N1CCC(Nc2ccc(C)cc2)CC1,inactive: -23.7%
22,COc1cccc(C(c2nnnn2C(C)(C)C)N2CCC(n3c(=O)[nH]c4ccccc43)CC2)c1OC (stereo unspecified),inactive: -7.5%
23,N/C(=N\O)c1c(N)no[n+]1[O-],inactive: 4.29%

row,Structure (SMILES),"activity change, negative = inhibition"
1,NN(c1ccccc1)C1CCN(CCc2ccccc2)CC1,inactive: 4.02%
2,O=C(O)C1(Nc2ccccc2)CCN(Cc2ccccc2)CC1,inactive: -0.164%
3,CC(C)(C)OC(=O)N1CCC(Nc2ccccc2)CC1,inactive: -1.15%
4,O=c1[nH]c2ccccc2n1C1CCN(C(c2cc3ccccc3o2)c2nnnn2C2CCCC2)CC1 (stereo unspecified),inactive: -3.87%
5,CCCOc1ccc(C(=O)NCC2(N(C)C)CCCCC2)cc1,inactive: -13.9% [at 57.1 µM]
6,CN1CCC(Nc2ccc(F)c(Cl)c2)CC1,inactive: -33.4%
7,CCOc1ncccc1C(=O)NCC1(N2CCOCC2)CCCCC1,inactive: 3.13%
8,CN1CCC(Nc2ccc(Cl)cc2)CC1,inactive: 0.944%
9,COc1cccc(C(=O)N(c2cc(C)cc(C)c2)C2CCN(C(=O)OC(C)(C)C)CC2)c1,inactive: -14.6%
10,COc1cccc(C(c2nnnn2C2CCCC2)N2CCC(n3c(=O)[nH]c4ccccc43)CC2)c1OC (stereo unspecified),inactive: -5.06%
11,COc1cc(OC)cc(C(=O)NCC2(N3CCOCC3)CCCCC2)c1,inactive: -6.51%
12,CCC(CO)(C(=O)OC1CN2CCC1CC2)c1ccccc1 (stereo unspecified),inactive: 0.988%
13,Fc1ccccc1NC1CCN(Cc2ccccc2)CC1,inactive: 0.0313%
14,Cc1ccc(Nc2c([N+](=O)[O-])cc([N+](=O)[O-])cc2[N+](=O)[O-])cc1,inactive: -3.99%
15,Cc1ccc(C(=O)NCC2(N3CCCCC3)CCCCC2)o1,inactive: -5.41%
16,Cc1ccc(NC2(C#N)CCN(Cc3ccccc3)CC2)cc1,inactive: -7.36%
17,CCC(c1nnnn1C1CCCCC1)N1CCC(n2c(=O)[nH]c3ccccc32)CC1 (stereo unspecified),inactive: -8.77%
18,COc1cccc(C(c2nnnn2C2CCCCC2)N2CCC(n3c(=O)[nH]c4ccccc43)CC2)c1OC (stereo unspecified),inactive: -6.12%
19,CC(=O)N(c1ccccc1)C1CCNCC1,inactive: -0.0198%
20,COc1cc(OC)cc(C(=O)NCC2(N3CCCCC3)CCCCC2)c1,inactive: -0.0938%
21,O=c1[nH]c2ccccc2n1C1CCN(C(c2ccnc3ccccc23)c2nnnn2C2CCCCC2)CC1 (stereo unspecified),inactive: 1.79%
22,CN(C)c1ccc(C(=O)NCC2(N3CCCCC3)CCCCC2)cc1,inactive: -0.721%
23,Cn1c(=O)[nH]cc(N(CCCl)CCCl)c1=O,inactive: -10.7%

row,Structure (SMILES),"activity change, negative = inhibition"
1,O=C(NCC1(N2CCCCC2)CCCCC1)c1ccco1,inactive: 11.5%
2,CCN1CCC(Nc2cccc(F)c2)CC1,inactive: -3.85%
3,COc1ccc(C(c2nnnn2C2CCCCC2)N2CCC(n3c(=O)[nH]c4ccccc43)CC2)cc1 (stereo unspecified),inactive: -1.87%
4,CC(C)(C)n1nnnc1C(c1ccnc2ccccc12)N1CCC(n2c(=O)[nH]c3ccccc32)CC1 (stereo unspecified),inactive: 2.31%
5,Cc1ccccc1NC1(C#N)CCN(Cc2ccccc2)CC1,inactive: 10.3%
6,CCOC(=O)N1CCC(Nc2ccc(F)cc2)CC1,inactive: 4.7%
7,COc1ccc(NC2CCN(CCc3ccccc3)CC2)c(OC)c1,inactive: -15.9%
8,CCCCOc1ccc(C(=O)NCC2(N3CCOCC3)CCCCC2)cc1,inactive: -33.1%
9,O=P1(N(CCCl)CCCl)SCCCS1,inactive: 0.565%
10,CCCCn1nnnc1C(c1cc2ccccc2o1)N1CCC(n2c(=O)[nH]c3ccccc32)CC1 (stereo unspecified),inactive: -7.58%
11,O=C(NCC1(N2CCCCC2)CCCCC1)c1ccc(F)cc1,inactive: 4.96%
12,O=C1CCN(Cc2ccccc2)CC1,inactive: -0.279%
13,CC(C)(C)n1nnnc1C(c1ccccc1)N1CCC(n2c(=O)[nH]c3ccccc32)CC1 (stereo unspecified),inactive: 2.9%
14,CCOC(=O)N1CCC(Nc2cccc(C)c2)CC1,inactive: 1.66%
15,COc1cc(C(=O)NCC2(N(C)C)CCCCC2)ccc1OC(F)F,inactive: 18.2%
16,O=c1[nH]c2ccccc2n1C1CCN(C(c2cccc3ccccc23)c2nnnn2C2CCCC2)CC1 (stereo unspecified),inactive: -6.69%
17,O=c1[nH]c2ccccc2n1C1CCN(C(c2ccccc2)c2nnnn2C2CCCCC2)CC1 (stereo unspecified),inactive: -7.01%
18,Cc1cccc(NC2(C#N)CCN(Cc3ccccc3)CC2)c1,inactive: 9.58%
19,CSc1ccccc1C(=O)NCC1(N2CCCCC2)CCCCC1,inactive: -6.42%
20,CC(C)(C)OC(=O)N1CCC(N(C(=O)c2ccccc2)c2ccc(F)cc2)CC1,inactive: -2.16%
21,COc1ccc(C(=O)NCC2(N3CCCCC3)CCCCC2)c(OC)c1OC,inactive: 0.275%
22,CCC(c1nnnn1C1CCCC1)N1CCC(n2c(=O)[nH]c3ccccc32)CC1 (stereo unspecified),inactive: -6.21%
23,COc1ccc(C(=O)NCC2(N3CCCCC3)CCCCC2)cc1,inactive: 6.43%

row,Structure (SMILES),"activity change, negative = inhibition"
1,O=C(NCC1(N2CCCCC2)CCCCC1)c1cccs1,inactive: -27%
2,CCCCn1nnnc1C(CC)N1CCC(n2c(=O)[nH]c3ccccc32)CC1 (stereo unspecified),inactive: -0.789%
3,CCCCn1nnnc1C(c1cccs1)N1CCC(n2c(=O)[nH]c3ccccc32)CC1 (stereo unspecified),inactive: -1.61%
4,O=C(NCC1(N2CCCCC2)CCCCC1)c1ccc(=O)[nH]c1,inactive: 9.26%
5,COc1ccc(Cl)cc1C(=O)NCC1(N2CCOCC2)CCCCC1,inactive: -4.02%
6,N#CC1(Nc2ccccc2)CCN(Cc2ccccc2)CC1,inactive: 0.776%
7,O=C(NCC1(N2CCCCC2)CCCCC1)c1ccc(Cl)s1,inactive: 3.38%
8,O=c1[nH]c2ccccc2n1C1CCN(C(c2cc3ccccc3o2)c2nnnn2C2CCCCC2)CC1 (stereo unspecified),inactive: -2.57%
9,O=C(OC1CN2CCC1CC2)C1c2ccccc2Oc2ccccc21 (stereo unspecified),inactive: -0.612%
10,CCCCn1nnnc1C(c1ccc(OC)cc1)N1CCC(n2c(=O)[nH]c3ccccc32)CC1 (stereo unspecified),inactive: 0.814%
11,CCOC(=O)N1CCC(Nc2ccc(OC)cc2)CC1,inactive: 2.61%
12,Cc1cc(C)cc(N(C(=O)c2ccccc2)C2CCN(C(=O)OC(C)(C)C)CC2)c1,inactive: 0.57%
13,O=C(NCC1(N2CCCCC2)CCCCC1)c1ccc(Cl)nc1,inactive: -3.36%
14,O=c1[nH]c2ccccc2n1C1CCN(C(c2ccccc2OC(F)(F)F)c2nnnn2C2CCCCC2)CC1 (stereo unspecified),inactive: -4.88%
15,O=C(NCC1(N2CCOCC2)CCCCC1)c1cc2ccccc2o1,inactive: -6.67%
16,CCN(CC)CCCNc1ccccc1[N+](=O)[O-].O=[N+]([O-])c1cc([N+](=O)[O-])c(O)c([N+](=O)[O-])c1,inactive: 5.93%
17,CCC(c1nnnn1C(C)(C)C)N1CCC(n2c(=O)[nH]c3ccccc32)CC1 (stereo unspecified),inactive: -7.13%
18,O=C(NCC1(N2CCOCC2)CCCCC1)c1cc(F)c(F)cc1Cl,inactive: 2.36%
19,COc1cc(OC)c(C(=O)NCC2(N(C)C)CCCCC2)cc1OC,inactive: -8.11% [at 57.1 µM]
20,CCCCn1nnnc1C(c1ccnc2ccccc12)N1CCC(n2c(=O)[nH]c3ccccc32)CC1 (stereo unspecified),inactive: 0.26%
21,CC(C)c1ccc(NC2CCN(C(=O)OC(C)(C)C)CC2)cc1,inactive: -7.22%
22,CCCCn1nnnc1C(c1ccccc1OC(F)(F)F)N1CCC(n2c(=O)[nH]c3ccccc32)CC1 (stereo unspecified),inactive: -11%
